Experimental data reported in patent US8729088B2, “Toll-like receptor modulators and treatment of diseases” (The Regents of the University of California, priority 2009, dated 2014).
“Also recorded” adds a separate entry of the source.

Assays:
[1] = test system: TLR7; test: Cytokine induction in BMDM from wild type and TLR7 deficient mice; format: cell-based, mouse; details: BMDM from TLR7 deficient mice
Experimental: (§1) In vitro measurements of cytokine induction were performed using the mouse leukemic monocyte macrophage cell line, RAW264.7. […] BMDM were prepared from C57BL/6 and TLR7 deficient mice as described in Wu, C. C et al., (2007) “Immunotherapeutic activity of a conjugate of a Toll-like receptor 7 ligand”, Proc Natl Acad Sci USA 104, 3990-5.
(§2) In general, RAW264.7 cells or BMDM were incubated with various concentrations of conjugates for 18 hours at 37° C., 5% CO2 and culture supernatants were collected. The levels of cytokines (IL-6, IL-12 or TNF-α in the supernatants were determined by ELISA (BD Biosciences Pharmingen, La Jolla, Calif.) (Cho, H. J et al., “Immunostimulatory DNA-based vaccines induce cytotoxic lymphocyte activity by a T-helper cell-independent mechanism” [see comments], Nat Biotechnol 18, 509-14 (2000)), and the results presented in FIG. 2A-D. Data are mean±SEM of triplicates and are representative of three independent experiments. Minimum detection levels of these cytokines were 15 pg/mL.

[2] = test system: C57BL/6 mice immunized with ovalbumin (OVA); test: Adjuvanticity: subcutaneous immunization with OVA mixed with TLR7 conjugates; format: in vivo, mouse
Experimental: Anti-OVA antibodies of the IgG subclasses (and in some embodiments specifically IgG1 and IgG2) were measured by ELISA, as described in Cho, H. J et al., “Immunostimulatory DNA-based vaccines induce cytotoxic lymphocyte activity by a T-helper cell-independent mechanism” [see comments], Nat Biotechnol 18, 509-14 (2000), and the results presented in FIGS. 5A and 5B. Each ELISA plate contained a titration of a previously quantitated serum to generate a standard curve. The titer of this standard was calculated as the highest dilution of serum that gave an absorbance reading that was double the background. The various sera samples were tested at a 1:100 dilution. The results are expressed in units per mL, calculated based on the units/mL of the standard serum, and represent the mean±SEM of five animals in each group. * and T denote P<0.05 and P<0.01 by One-way ANOVA compared to the mice immunized with OVA mixed with vehicle, respectively.
Spleenocytes were prepared from the harvested spleens. […] The levels of IFNγ in the culture supernatants were measured by ELISA (BD Bioscience PharMingen) as per the manufacturer's instructions (Kobayashi, H et al., Prepriming: a novel approach to DNA-based vaccination and immunomodulation”, Springer Semin Immunopathol 22:85-96 (2000), and the results illustrated in FIG. 5C. Average total spleen cell number in each group were calculated and compared to the PBS-immunized groups to monitor the spleen cell proliferation. Data are mean±SEM of five mice and are representative of three independent experiments.
The efficiency of adjuvanticity was assessed by measurement of the levels and isotypes of the antigen-specific IgG that the vaccine induces, in particular IgG1 and IgG2 (Mosmann, T. R., and Coffman, R. L., ‘TH1 and TH2 cells: different patterns of lymphokine secretion lead to different functional properties’, Annual Review Immunology 7:145-73 (1989)). The groups of C57BL/6 mice (n=5 animals per group) were subcutaneously immunized with OVA (ovalbumin) mixed with TLR7 conjugates. ISS-ODN was used as a potent Th1 adjuvant positive control. […]

[3] = target: T1, TLR7 (Mus musculus, UniProt P58681); test: Cytokine induction in BMDM from wild type and TLR7 deficient mice; format: cell-based; set-up: endogenous in cells; host or cells: primary BMDM from C57BL/6 mice; details: wild type BMDM
T1 sequence (P58681 27-1050): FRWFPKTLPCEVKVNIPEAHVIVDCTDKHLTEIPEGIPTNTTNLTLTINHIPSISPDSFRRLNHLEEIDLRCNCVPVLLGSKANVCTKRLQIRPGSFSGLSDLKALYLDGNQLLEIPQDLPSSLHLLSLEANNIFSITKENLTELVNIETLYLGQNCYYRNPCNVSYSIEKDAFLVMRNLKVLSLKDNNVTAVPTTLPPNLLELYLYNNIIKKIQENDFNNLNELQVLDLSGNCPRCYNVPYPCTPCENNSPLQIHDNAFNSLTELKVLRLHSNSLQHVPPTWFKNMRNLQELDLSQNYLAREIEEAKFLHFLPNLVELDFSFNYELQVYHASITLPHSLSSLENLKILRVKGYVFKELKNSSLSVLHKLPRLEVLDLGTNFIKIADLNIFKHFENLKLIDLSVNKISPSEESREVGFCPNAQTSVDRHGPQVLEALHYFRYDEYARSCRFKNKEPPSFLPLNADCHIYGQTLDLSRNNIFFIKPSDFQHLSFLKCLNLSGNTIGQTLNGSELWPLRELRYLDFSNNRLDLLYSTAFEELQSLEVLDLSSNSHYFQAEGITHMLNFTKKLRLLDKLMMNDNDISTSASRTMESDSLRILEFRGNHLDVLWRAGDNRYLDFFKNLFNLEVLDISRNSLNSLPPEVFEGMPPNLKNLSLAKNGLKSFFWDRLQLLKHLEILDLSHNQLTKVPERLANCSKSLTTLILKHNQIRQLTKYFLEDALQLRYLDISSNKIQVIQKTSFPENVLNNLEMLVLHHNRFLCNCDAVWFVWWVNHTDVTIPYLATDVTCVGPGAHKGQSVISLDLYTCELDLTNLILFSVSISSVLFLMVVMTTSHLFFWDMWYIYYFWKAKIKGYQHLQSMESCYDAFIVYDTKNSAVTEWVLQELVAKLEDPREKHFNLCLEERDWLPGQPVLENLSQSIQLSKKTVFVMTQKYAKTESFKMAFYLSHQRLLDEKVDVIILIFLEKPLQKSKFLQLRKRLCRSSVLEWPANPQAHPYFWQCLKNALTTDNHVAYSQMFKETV
Experimental: as §1, §2

[4] = target: T1, TLR7; set-up: endogenous in cells; host or cells: RAW264.7 (ATCC); primary BMDM from C57BL/6 mice; details: cited from earlier work

agonist activity (IL-12, IL-6) [3]: active
Substance: 4a: TLR7 agonist (UC1V150) covalently coupled with mouse serum albumin (MSA), conjugation ratio 5:1 [Compound 4a]
IL-12 and IL-6 induction [1]: little or no IL-12 and IL-6 | onset of induction of anti-OVA antibodies ([2]; OVA mixed with conjugate, s.c., days 0 and 7): 14 days | OVA-specific IFNγ secretion by spleen cells ([2]; day 56 splenocytes restimulated with OVA): enhanced; also recorded: maintained relatively high levels | anti-OVA IgG2a levels ([2]; serum, ELISA, days 0-56): subsequently declined; also recorded: rapid elevation; also recorded: declined three weeks after the last immunization | potency in cytokine induction compared to unconjugated drug (SM) ([4]; in vitro and in vivo, Wu et al. 2007): ≥ 10 | potency as a cytokine inducer compared to the unconjugated agonist ([4]; previously shown): 100 fold
